Test results from ChEMBL document CHEMBL1134156, “Design, synthesis and preliminary evaluation of novel 3'-substituted carboxycyclopropylglycines as antagonists at group 2 metabotropic glutamate receptors” (Bioorg Med Chem Lett, 2001).

By UniProt entry, the sequences of proteins in these tests, tags left out. Where a name states a change or a piece, a line headed by the entry shows the natural chain unless it says otherwise.
UniProt Q14416: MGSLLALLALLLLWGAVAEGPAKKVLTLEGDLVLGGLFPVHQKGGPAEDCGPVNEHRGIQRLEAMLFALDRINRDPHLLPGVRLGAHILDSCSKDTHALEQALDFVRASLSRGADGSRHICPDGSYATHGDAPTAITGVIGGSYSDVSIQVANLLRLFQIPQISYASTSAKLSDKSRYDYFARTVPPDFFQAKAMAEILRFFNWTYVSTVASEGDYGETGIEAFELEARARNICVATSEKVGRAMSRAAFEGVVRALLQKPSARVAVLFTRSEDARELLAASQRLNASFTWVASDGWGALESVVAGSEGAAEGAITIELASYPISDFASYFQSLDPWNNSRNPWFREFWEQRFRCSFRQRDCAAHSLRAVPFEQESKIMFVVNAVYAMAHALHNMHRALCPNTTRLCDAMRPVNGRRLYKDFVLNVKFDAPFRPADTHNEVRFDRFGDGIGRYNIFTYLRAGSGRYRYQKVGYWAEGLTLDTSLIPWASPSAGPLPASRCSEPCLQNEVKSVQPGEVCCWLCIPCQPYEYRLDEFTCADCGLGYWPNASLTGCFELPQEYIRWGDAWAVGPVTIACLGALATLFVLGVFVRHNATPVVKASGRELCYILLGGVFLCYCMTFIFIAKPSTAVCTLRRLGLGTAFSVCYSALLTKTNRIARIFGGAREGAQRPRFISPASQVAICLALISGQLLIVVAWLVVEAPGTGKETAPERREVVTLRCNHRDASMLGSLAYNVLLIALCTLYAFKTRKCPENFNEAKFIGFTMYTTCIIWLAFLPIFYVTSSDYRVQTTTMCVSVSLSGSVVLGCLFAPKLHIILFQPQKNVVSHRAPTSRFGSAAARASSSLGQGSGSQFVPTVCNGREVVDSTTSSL

Target: Metabotropic glutamate receptor 2 (Homo sapiens, UniProt Q14416)
Assay: Antagonistic activity against stimulation of GTP (gamma) 35 S binding by glutamate in membranes from CHO cells expressing human Metabotropic glutamate receptor 2
Type: cell membranes

`NC(C(=O)O)[C@H]1[C@@H](CC2c3ccccc3Oc3ccccc32)[C@@H]1C(=O)O` (stereo partly specified) showed an IC50 of 6.4 µM.
